Consider one molecule from patent US20100061982A1, “3-SUBSTITUTED-1H-INDOLE, 3-SUBSTITUTED-1H-PYRROLO[2,3-B]PYRIDINE AND 3-SUBSTITUTED-1H-PYRROLO[3,2-B]PYRIDINE COMPOUNDS, THEIR USE AS MTOR KINASE AND PI3 KINASE INHIBITORS, AND THEIR SYNTHESES” (priority 2008, published 2010).

Amino acid sequences for entries named in this document (tags omitted).
UniProt P42336, whole entry, species assumed: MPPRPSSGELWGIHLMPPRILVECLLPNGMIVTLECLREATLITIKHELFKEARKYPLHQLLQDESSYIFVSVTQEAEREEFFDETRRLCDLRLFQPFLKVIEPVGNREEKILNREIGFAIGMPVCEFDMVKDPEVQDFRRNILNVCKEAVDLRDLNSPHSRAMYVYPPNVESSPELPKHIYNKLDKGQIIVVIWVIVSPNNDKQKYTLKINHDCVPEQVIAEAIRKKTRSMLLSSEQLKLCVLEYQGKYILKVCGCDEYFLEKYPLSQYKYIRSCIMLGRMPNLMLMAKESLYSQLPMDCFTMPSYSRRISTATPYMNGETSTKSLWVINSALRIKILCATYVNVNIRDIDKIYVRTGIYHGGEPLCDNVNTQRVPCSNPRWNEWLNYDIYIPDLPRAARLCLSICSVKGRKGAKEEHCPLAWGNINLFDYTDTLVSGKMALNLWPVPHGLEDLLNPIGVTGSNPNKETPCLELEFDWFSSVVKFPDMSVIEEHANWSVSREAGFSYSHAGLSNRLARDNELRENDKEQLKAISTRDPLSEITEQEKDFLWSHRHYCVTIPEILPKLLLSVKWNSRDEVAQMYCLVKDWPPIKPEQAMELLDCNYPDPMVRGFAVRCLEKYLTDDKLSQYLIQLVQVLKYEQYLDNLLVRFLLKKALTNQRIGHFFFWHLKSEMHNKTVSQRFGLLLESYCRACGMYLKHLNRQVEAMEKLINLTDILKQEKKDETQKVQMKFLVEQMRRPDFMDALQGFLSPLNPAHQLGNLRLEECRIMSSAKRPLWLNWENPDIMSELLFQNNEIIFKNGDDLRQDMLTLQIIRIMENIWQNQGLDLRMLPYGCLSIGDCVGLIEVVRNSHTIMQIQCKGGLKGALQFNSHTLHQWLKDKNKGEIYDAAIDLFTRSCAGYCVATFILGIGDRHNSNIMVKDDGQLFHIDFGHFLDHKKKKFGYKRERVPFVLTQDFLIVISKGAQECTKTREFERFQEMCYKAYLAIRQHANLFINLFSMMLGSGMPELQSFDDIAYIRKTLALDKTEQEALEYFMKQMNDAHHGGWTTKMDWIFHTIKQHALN

In the assay the target is PI3K alpha (Homo sapiens, UniProt P42336). The assay can be described thus: PI3K-alpha Fluorescence Polarization Assay. Type of assay: biochemical. The method, then: The reaction buffer was 20 mM HEPES pH7.5, 2 mM MgCl2, 0.05% CHAPS, and 0.01% βME (added fresh). The substrate solution was 40 μM PIP2 (diC8, Echelon, Salt Lake City Utah cat #P-4508, 1 mM in water) and 50 μM ATP in the reaction buffer. Nunc 384-well black polypropylene fluorescent plates were used for PI3K assays. The assay is run by putting 9.5 μl of freshly diluted enzyme in the reaction buffer per well, adding 0.5 μl of diluted drug or DMSO, and mixing. Then 10 μl of the substrate solution is added to each well to start the reaction. A final concentration of 20 μM PIP2 and 25 μM ATP in the reaction was used. Reactions were allowed to proceed for 30-60 minutes at room temperature. After 30-60 minutes, 20 μl of a solution of 10 nM TAMRA detector (Red detector probe-Echelon) and 2.5 μM of GST-murineGRP (1.5 mg/ml in 17% glycerol) was added per well to stop the reaction. The resulting solution was mixed well and allowed to stand for 90-110 minutes before reading plate. Assay Plates were read on Perkin-Elmer Envision plate readers with appropriate filters for Tamra [BODIPY-TMRI(1,3,4,5)P4]. Data obtained were used to calculate enzymatic activity and enzyme inhibition by inhibitor compounds. It is important to keep Red probe solutions dark. This procedure is adapted from Echelon Biosciences Inc procedure for their PI3-Kinase fluorescence polarization activity Assay kit Product number K-1100.
Background: In fluorescence polarisation assays a small probe gives low polarisation when free and higher when bound to something large.

A word on the IC50: it is the point on the concentration scale where inhibition reaches its midpoint. `COc1ccc2[nH]c(-c3ccccc3)c(C=C3Oc4cc(O)cc(O)c4C3=O)c2c1` [4,6-dihydroxy-2-[(5-methoxy-2-phenyl-1H-indol-3-yl)methylene]-1-benzofuran-3(2H)-one]: the IC50 is less than 3 nM.
